Measurements published in US20260384421A1, “NOVEL COMPOUNDS THAT CAN BE USED AS THERAPEUTIC AGENTS” (published 2026).

Experiments:
LOUCY cells = test: alamarBlue proliferation assay with LOUCY cells; conditions: read-out: Activity on LOUCY (IC50), day 5
Protocol: These hyperproliferative processes can be benign or malignant and include hyperplasia, neoplasia, cancer and pre-cancerous lesions, and metastases. […] To this end, according cells were seeded into 96-well plates (CORNING #3598) suitable for fluorescence assays at following initial cell numbers: 1000 cells per well for HPEK; 3000 cells per well for MDA-MB-231, 8000 cells per well for ZR-75-30, 1500 cells per well for HCC-1395, 1500 cells per well for HCC-1937, 3000 cells per well for T-47D, 1500 cells per well for JURKAT, 5000 cells per well for RPMI-8402, 9000 cells per well for LOUCY, 1500 cells per well for TANQUE, 9000 cells per well for REC-1, 1000 cells per well for HL-60, 1000 cells per well for NB-4, 9000 cells per well for TT, 2000 cells per well for HeLa, 2000 cells per well for 23132/87, 9000 cells per well for SW-948, 700 cells per well for HCT-116, 1500 cells per well for BHY, 700 cells per well for A-431, 1500 cells per well for HEP-G2, 500 cells per well for NCI-H460, 1000 cells per well for A-549, 1500 cells per well for PANC-1, 2500 cells per well for U-87 MG, 700 cells per well for A-375, 1500 cells per well for RVH-421, 2000 cells per well for SW-1353, 500 cells per well for C2C12, 500 cells per well for LL/2, and 3000 cells per well for CF21.T. In a volume of 90 μL per well of culture medium the cells were treated with compounds at indicated final concentrations by adding 10 μL per well of 10× compound working solutions from 1:100 pre-diluted 1000× compound DMSO stock-solutions in H2O (Water For Injection, WFI, Fisher Scientific, Gibco™ #A12873) or with the empty carrier DMSO (AppliChem, #A3672) at 0.1% v/v as control yielding a final volume of 100 μL per well. […] The readout was taken with a multi-well plate-reader (Tecan Spark®) in the fluorescence mode with applying a filter for excitation at 560 nm (band width 10 nm) and for emission at 590 nm (band width 10 nm). […]

RPMI-8402 cells = test: alamarBlue proliferation assay with RPMI-8402 cells; conditions: read-out: Activity on RPMI-8402 (IC50), day 5
From the text: (§1) These hyperproliferative processes can be benign or malignant and include hyperplasia, neoplasia, cancer and pre-cancerous lesions, and metastases. […] The readout was taken with a multi-well plate-reader (Tecan Spark®) in the fluorescence mode with applying a filter for excitation at 560 nm (band width 10 nm) and for emission at 590 nm (band width 10 nm). […]

HEP-G2 cells = test: alamarBlue proliferation assay with HEP-G2 cells; conditions: read-out: Activity on HEP-G2: IC50, RPMI 1640 medium, 10% FBS
MDA-MB-231 cells = test: alamarBlue proliferation assay with MDA-MB-231 cells (glucose-free Leibovitz's L-15 medium); conditions: read-out: Activity on MDA-MB-231 (IC50); glucose-free Leibovitz's L-15, 10% FBS; day 5; alamarBlue
T-47D cells = test: alamarBlue proliferation assay with T-47D cells; conditions: read-out: Activity on T-47D (IC50), day 5
HCC-1937 cells = test: alamarBlue proliferation assay with HCC-1937 cells; conditions: read-out: Activity on HCC-1937 (IC50), day 5
From the text: as §1

A-431 cells = test: alamarBlue proliferation assay with A-431 cells; conditions: read-out: Activity on A-431: IC50, DMEM medium, 10% FBS
HeLa cells = test: alamarBlue proliferation assay with HeLa cells; conditions: read-out: Activity on HeLa (IC50), day 5
From the text: These hyperproliferative processes can be benign or malignant and include hyperplasia, neoplasia, cancer and pre-cancerous lesions, and metastases. The antiproliferative activities of compounds falling under general formula (I) were investigated on human primary epidermal keratinocytes (HPEK) and human, murine and canine cell lines derived from hyperproliferative tissue or different cancer types, including MDA-MB-231, ZR-75-30, HCC-1395, HCC-1937, and T-47D all originating from cancer of the breast, JURKAT, RPMI-8402, LOUCY, TANQUE, REC-1, HL-60, NB-4 all originating from different types of blood cancer including lymphoma and leukemia of T-cells, B-cells and myeloid cells, TT originating from cancer of the neuroendocrine system, HeLa originating from cancer of the cervix, 23132/87, SW-948, and HCT-116 all originating from cancer of the gastrointestinal tract including stomach and colon, BHY originating from cancer of the mucosal epithelium, A-431 originating from cancer of the skin, HEP-G2 originating from cancer of the liver, NCI-H460 and A-549 both originating from cancer of the lung, PANC-1 originating from cancer of the pancreas, U-87 MG originating from cancer of the brain, A-375 and RVH-421 both originating from cancer of melanocytes, SW-1353 originating from cancer of bone-derived chondrocytes, C2C12 a mouse cell line originating from hyperproliferative muscle progenitor cells, LL/2 a mouse cell line originating from cancer of the lung, CF21.T a dog cell line originating from cancer of the connective tissue. To this end, according cells were seeded into 96-well plates (CORNING #3598) suitable for fluorescence assays at following initial cell numbers: 1000 cells per well for HPEK; 3000 cells per well for MDA-MB-231, 8000 cells per well for ZR-75-30, 1500 cells per well for HCC-1395, 1500 cells per well for HCC-1937, 3000 cells per well for T-47D, 1500 cells per well for JURKAT, 5000 cells per well for RPMI-8402, 9000 cells per well for LOUCY, 1500 cells per well for TANQUE, 9000 cells per well for REC-1, 1000 cells per well for HL-60, 1000 cells per well for NB-4, 9000 cells per well for TT, 2000 cells per well for HeLa, 2000 cells per well for 23132/87, 9000 cells per well for SW-948, 700 cells per well for HCT-116, 1500 cells per well for BHY, 700 cells per well for A-431, 1500 cells per well for HEP-G2, 500 cells per well for NCI-H460, 1000 cells per well for A-549, 1500 cells per well for PANC-1, 2500 cells per well for U-87 MG, 700 cells per well for A-375, 1500 cells per well for RVH-421, 2000 cells per well for SW-1353, 500 cells per well for C2C12, 500 cells per well for LL/2, and 3000 cells per well for CF21.T. In a volume of 90 μL per well of culture medium the cells were treated with compounds at indicated final concentrations by adding 10 μL per well of 10× compound working solutions from 1:100 pre-diluted 1000× compound DMSO stock-solutions in H2O (Water For Injection, WFI, Fisher Scientific, Gibco™ #A12873) or with the empty carrier DMSO (AppliChem, #A3672) at 0.1% v/v as control yielding a final volume of 100 μL per well. At day 5 after starting the treatments the cells were subjected to the alamarBlue® Proliferation Assay (Bio-Rad Serotec GmbH, BUF012B) according to the protocol of the manufacturer. The readout was taken with a multi-well plate-reader (Tecan Spark®) in the fluorescence mode with applying a filter for excitation at 560 nm (band width 10 nm) and for emission at 590 nm (band width 10 nm). […]

SK-MEL-5 melanoma cells = test: treatment-sensitization activity assay with PLX-4720 on SK-MEL-5 cells; conditions: PLX-4720 10 μM or compound of formula (I) 1 μM alone; 3 days; SK-MEL-5
From the text: Sensitization through a compound to other treatments can be assessed by investigating the growth behaviour of cancer cells being not or only poorly responsive to said other treatments in the presence of the sensitizing compound in a combination treatment. The sensitization activity of a compound falling under general formula (I) was investigated in a combination treatment with the B-Raf-V600E inhibitor PLX-4720 (MedChemExpress, #HY-51424) in a viability assay on PLX-4720-poorly responsive SK-MEL-5 melanoma cells harbouring a BRAF V600E mutation. SK-MEL-5 cells, obtainable from the American Type Culture Collection (ATCC) under the accession number ATCC-HTB-70, were cultivated in EMEM medium (ATCC, #30-2003) containing 10% fetal bovine serum (Fisher Scientific, Gibco™ #A31608) at 37 °C and 5% CO2. The viability assay was performed according to the protocol as described above using alamarBlue® (Bio-Rad Serotec GmbH, BUF012B). To this end, SK-MEL-5 cells were seeded into 96-well plates (CORNING #3598) suitable for fluorescence assays at a cell number of 4'000 cells per well containing 10 μL per well of 10× compound working solutions or the empty carrier DMSO as control. The cells were treated with compounds at final concentrations of 1 μM for the compound of formula (I) and 10UM for PLX-4720. […] Relative viability values were calculated from the fluorescence intensities as described above. […]

IC50 (HEP-G2 cells) | IC50 (MDA-MB-231 cells) | IC50 (T-47D cells) | IC50 (HCC-1937 cells) | IC50 (A-431 cells) | IC50 (HeLa cells) | Structure (SMILES) | IC50 (LOUCY cells) | IC50 (RPMI-8402 cells) | decrease in relative viability upon single treatments (SK-MEL-5 melanoma cells)
≤ 5 µM | ≤ 5 µM | ≤ 1 µM | ≤ 5 µM | ≤ 5 µM | ≤ 1 µM | C#CCN1CCN(C(=O)c2ccc(Oc3ccc(C4CCC5(CC4)OCCO5)cc3C=O)cc2)CC1 | ≤ 0.2 µM | ≤ 1 µM | –
– | – | – | – | – | – | CCCS(=O)(=O)Nc1ccc(F)c(C(=O)c2c[nH]c3ncc(Cl)cc23)c1F | – | – | less than 20%
≤ 20 µM | ≤ 20 µM | ≤ 20 µM | ≤ 20 µM | ≤ 20 µM | – | CC(=O)N1CCN(C(=O)c2ccc(Oc3ccc(C4CCCCC4)cc3C=O)cc2)CC1 | ≤ 5 µM | ≤ 20 µM | –
